Measurements published in US9040261B2, “Compounds as L-cystine crystallization inhibitors and uses thereof” (NEW YORK UNIVERSITY, priority 2009, dated 2015).

Experiment: Bulk crystallization of L-cystine in the presence of additives (mass yield)
Protocol: Alternately, the hexagonal crystals can be obtained by crystallization performed near neutral pH (Sa) The hexagonal form was crystallized from a supersaturated L-cystine solution prepared by adding 70 mg of L-cystine to 100 mL of deionized water (3 mM), and heating under reflux at 100° C. for 20 min with stirring to completely dissolve L-cystine. […] This concentration was used for bulk crystallization studies in the presence of additives so that a measurable amount of bulk crystals could be obtained in a reasonable time. The solution was then allowed to cool slowly with stirring for 75 min. 30 mL aliquots were transferred to separate glass containers, which were then sealed to prevent evaporation and exposure to airborne particulates and stored for 72 hours at room temperature without stirring. […] The crystals retrieved in this manner were used for AFM studies by mounting individual crystals according to the procedure described below.
Various proteins, poly-amino acids, and molecular mimics of L-cystine were examined as additives. The aforementioned procedure for hexagonal platelet crystallization was repeated. […]
L-cystine bulk crystallization was investigated in the presence of various polymers, urinary constituents, fish antifreeze proteins (AFPs), and L-cystine derivatives (i.e. structural mimics of L-cystine), which were analyzed as possible growth inhibitors of hexagonal L-cystine. […]

In the case of “Human serum albumin: human serum albumin (fatty-acid free, 99%)”, the “Yield (%) = (collected mass by filtration, >11 μm)/(total mass added) × 100%” value (2 mg/L additive, 0.7 g/L L-cystine (pH 6.8), no additive 80, approximate error ±8%) is reported as 63% and the “influence on L-cystine growth” value (polymers and proteins with proximal carboxylate and amine groups, Table 1) is reported as “negligible influence”.
